Laboratory results taken from patent US10081623B2, “Diamide macrocycles that are FXIa inhibitors” (BRISTOL-MYERS SQUIBB COMPANY, priority 2014, dated 2018).

Chains of the proteins cited; added tags and fusions are not shown. Residues count along the entry.
UniProt P03951, 19-387 partner: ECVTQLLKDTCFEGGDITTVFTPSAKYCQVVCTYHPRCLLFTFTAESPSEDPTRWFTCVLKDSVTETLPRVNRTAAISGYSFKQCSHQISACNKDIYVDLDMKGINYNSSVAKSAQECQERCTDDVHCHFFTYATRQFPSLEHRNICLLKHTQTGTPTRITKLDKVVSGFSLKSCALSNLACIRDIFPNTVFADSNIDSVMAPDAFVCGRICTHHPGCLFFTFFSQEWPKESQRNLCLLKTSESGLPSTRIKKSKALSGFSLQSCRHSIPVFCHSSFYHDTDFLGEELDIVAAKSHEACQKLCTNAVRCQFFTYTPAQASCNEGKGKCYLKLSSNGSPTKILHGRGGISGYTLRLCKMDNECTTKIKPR
UniProt P03951, 388-625: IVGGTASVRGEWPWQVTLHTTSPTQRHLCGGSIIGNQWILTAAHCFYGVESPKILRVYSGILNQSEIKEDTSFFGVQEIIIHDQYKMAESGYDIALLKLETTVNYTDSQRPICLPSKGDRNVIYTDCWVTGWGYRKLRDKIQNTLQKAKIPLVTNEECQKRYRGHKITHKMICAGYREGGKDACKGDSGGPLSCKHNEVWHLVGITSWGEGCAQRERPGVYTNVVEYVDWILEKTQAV

Target: purified human Factor XIa (Homo sapiens (Human), UniProt P03951)
Test: Factor XIa assay (chromogenic substrate S-2366 hydrolysis, Ki)
Assay type: biochemical
Details: measured at 37° C.
Method: The effectiveness of compounds of the present invention as inhibitors of the coagulation Factors XIa, VIIa, IXa, Xa, XIIa, plasma kallikrein or thrombin, can be determined using a relevant purified serine protease, respectively, and an appropriate synthetic substrate. The rate of hydrolysis of the chromogenic or fluorogenic substrate by the relevant serine protease was measured both in the absence and presence of compounds of the present invention. […] A decrease in the rate of absorbance or fluorescence change in the presence of inhibitor is indicative of enzyme inhibition. Such methods are known to one skilled in the art. The results of this assay are expressed as the inhibitory constant, Ki.
Factor XIa determinations were made in 50 mM HEPES buffer at pH 7.4 containing 145 mM NaCl, 5 mM KCl, and 0.1% PEG 8000 (polyethylene glycol; JT Baker or Fisher Scientific). Determinations were made using purified human Factor XIa at a final concentration of 25-200 pM (Haematologic Technologies) and the synthetic substrate S-2366 (pyroGlu-Pro-Arg-pNA; CHROMOGENIX® or AnaSpec) at a concentration of 0.0002-0.001 M.
The Michaelis constant, Km, for substrate hydrolysis by each protease, was determined at 25° C. or 37° C. in the absence of inhibitor. Values of Ki were determined by allowing the protease to react with the substrate in the presence of the inhibitor. Reactions were allowed to go for periods of 20-180 minutes (depending on the protease) and the velocities (rate of absorbance or fluorescence change versus time) were measured. The following relationships were used to calculate Ki values: (Vmax*S)/(Km+S); (vo−vs)/vs=I/(Ki(1+S/Km)) for a competitive inhibitor with one binding site; or vs/vo=A+(B−A)/(1+(I/IC50)^n); and Ki=IC50/(1+S/Km) for a competitive inhibitor where: […]

| Structure (SMILES) | Ki |
| --- | --- |
| O=C1CCCCCC(C(=O)NCCc2cc(Cl)ccc2-n2cnnn2)NC(=O)c2ccccc2N1 (racemic) [Example 28, (±)-N-{2-[5-Chloro-2-(1H-1,2,3,4-tetrazol-1-yl)phenyl]ethyl}-2,10-dioxo-1,2,3,4,5,6,7,8,9,10-decahydro-1,9-benzodiazacyclododecine-8-carboxamide] | 0.338 µM |
| COC(=O)Nc1ccc2c(c1)NC(=O)CC(C)/C=C/CC(C(=O)NCCc1cc(Cl)ccc1-n1cnnn1)NC2=O (single isomer, unassigned) [Example 35, (E)-Methyl N-[8-({2-[5-chloro-2-(1H-1,2,3,4-tetrazol-1-yl)phenyl]ethyl}carbamoyl)-4-methyl-2,10-dioxo-1,2,3,4,7,8,9,10-octahydro-1,9-benzodiazacyclododecin-13-yl]carbamate] | 0.216 µM |
| COC(=O)Nc1ccc2c(c1)NC(=O)C(C)CCCCC(C(=O)NCCc1cc(Cl)ccc1-n1cnnn1)NC2=O (single isomer, unassigned) [Example 18, Methyl N-[8-({2-[5-chloro-2-(1H-1,2,3,4-tetrazol-1-yl)phenyl]ethyl}carbamoyl)-3-methyl-2,10-dioxo-1,2,3,4,5,6,7,8,9,10-decahydro-1,9-benzodiazacyclododecin-13-yl]carbamate] | 0.0543 µM |
| COC(=O)Nc1ccc2c(c1)NC(=O)C(C)CCCCC(C(=O)NCCc1cc(Cl)ccc1-n1cnnn1)NC2=O (single isomer, unassigned) [Example 19, Methyl N-[8-({2-[5-chloro-2-(1H-1,2,3,4-tetrazol-1-yl)phenyl]ethyl}carbamoyl)-3-methyl-2,10-dioxo-1,2,3,4,5,6,7,8,9,10-decahydro-1,9-benzodiazacyclododecin-13-yl]carbamate] | 0.596 µM |
| COC(=O)Nc1ccc2c(c1)NC(=O)C(C)CCCCC(C(=O)NCCc1cc(Cl)ccc1-n1cnnn1)NC2=O (racemic) [Example 17, (±)-Methyl N-[8-({2-[5-chloro-2-(1H-1,2,3,4-tetrazol-1-yl)phenyl]ethyl}carbamoyl)-3-methyl-2,10-dioxo-1,2,3,4,5,6,7,8,9,10-decahydro-1,9-benzodiazacyclododecin-13-yl]carbamate] | 0.104 µM |
| COC(=O)Nc1ccc2c(c1)NC(=O)CC(C)/C=C\CC(C(=O)NCCc1cc(Cl)ccc1-n1cnnn1)NC2=O (racemic) [Example 32, (Z)-(±)-Methyl N-[8-({2-[5-chloro-2-(1H-1,2,3,4-tetrazol-1-yl)phenyl]ethyl}carbamoyl)-4-methyl-2,10-dioxo-1,2,3,4,7,8,9,10-octahydro-1,9-benzodiazacyclododecin-13-yl]carbamate] | 0.0174 µM |
| COC(=O)Nc1ccc2c(c1)NC(=O)CCCCCC(C(=O)N1CCC(c3cccc(Cl)c3)C1)NC2=O (racemic) [Example 9, (±)-Methyl N-{8-[3-(3-chlorophenyl)pyrrolidine-1-carbonyl]-2,10-dioxo-1,2,3,4,5,6,7,8,9,10-decahydro-1,9-benzodiazacyclododecin-13-yl}carbamate] | 2.07 µM |
| COC(=O)Nc1ccc2c(c1)NC(=O)CC(C)/C=C/CC(C(=O)NCCc1cc(Cl)ccc1-n1cnnn1)NC2=O (single isomer, unassigned) [Example 34, (E)-Methyl N-[8-({2-[5-chloro-2-(1H-1,2,3,4-tetrazol-1-yl)phenyl]ethyl}carbamoyl)-4-methyl-2,10-dioxo-1,2,3,4,7,8,9,10-octahydro-1,9-benzodiazacyclododecin-13-yl]carbamate] | < 0.005 µM |

Second part, the molecule after the results:

| Ki | Structure (SMILES) |
| --- | --- |
| 0.0818 µM | COC(=O)Nc1ccc2c(c1)NC(=O)CC(C)CCCC(C(=O)NCCc1cc(Cl)ccc1-n1cnnn1)NC2=O (single isomer, unassigned) [Example 12, Methyl N-[8-({2-[5-chloro-2-(1H-1,2,3,4-tetrazol-1-yl)phenyl]ethyl}carbamoyl)-4-methyl-2,10-dioxo-1,2,3,4,5,6,7,8,9,10-decahydro-1,9-benzodiazacyclododecin-13-yl]carbamate] |
| 0.0736 µM | COC(=O)Nc1ccc2c(c1)NC(=O)CC(C)CCCC(C(=O)NCCc1cc(Cl)ccc1-n1cnnn1)NC2=O (racemic) [Example 11, (±)-Methyl N-[8-({2-[5-chloro-2-(1H-1,2,3,4-tetrazol-1-yl)phenyl]ethyl}carbamoyl)-4-methyl-2,10-dioxo-1,2,3,4,5,6,7,8,9,10-decahydro-1,9-benzodiazacyclododecin-13-yl]carbamate] |
| 0.0141 µM | COC(=O)Nc1ccc2c(c1)NC(=O)C(C)CCCCC(C(=O)NCCc1cc(Cl)ccc1-n1cnnn1)NC2=O (single isomer, unassigned) [Example 21, Methyl N-[8-({2-[5-chloro-2-(1H-1,2,3,4-tetrazol-1-yl)phenyl]ethyl}carbamoyl)-3-methyl-2,10-dioxo-1,2,3,4,5,6,7,8,9,10-decahydro-1,9-benzodiazacyclododecin-13-yl]carbamate] |
| 0.0732 µM | COC(=O)Nc1ccc2c(c1)NC(=O)C(C)CCCCC(C(=O)NCCc1cc(Cl)ccc1-n1cnnn1)NC2=O (racemic) [Example 16, (±)-Methyl N-[8-({2-[5-chloro-2-(1H-1,2,3,4-tetrazol-1-yl)phenyl]ethyl}carbamoyl)-3-methyl-2,10-dioxo-1,2,3,4,5,6,7,8,9,10-decahydro-1,9-benzodiazacyclododecin-13-yl]carbamate] |
| 0.0343 µM | COC(=O)Nc1ccc2c(c1)NC(=O)CC(C)CCCC(C(=O)NCCc1cc(Cl)ccc1-n1cnnn1)NC2=O (single isomer, unassigned) [Example 13, Methyl N-[8-({2-[5-chloro-2-(1H-1,2,3,4-tetrazol-1-yl)phenyl]ethyl}carbamoyl)-4-methyl-2,10-dioxo-1,2,3,4,5,6,7,8,9,10-decahydro-1,9-benzodiazacyclododecin-13-yl]carbamate] |
| 0.336 µM | COC(=O)Nc1ccc2c(c1)NC(=O)CC(C)CCCC(C(=O)NCCc1cc(Cl)ccc1-n1cnnn1)NC2=O (single isomer, unassigned) [Example 14, Methyl N-[8-({2-[5-chloro-2-(1H-1,2,3,4-tetrazol-1-yl)phenyl]ethyl}carbamoyl)-4-methyl-2,10-dioxo-1,2,3,4,5,6,7,8,9,10-decahydro-1,9-benzodiazacyclododecin-13-yl]carbamate] |
